# Reference: ChEMBL document CHEMBL3232915, “Discovery, optimization, and characterization of novel D2 dopamine receptor selective antagonists” (J Med Chem, 2014)
# Experiments:
# [1] = test system: CHO; experiment: Ratio of AC50 for ProLink-tagged D3 receptor (unknown origin) expressed in CHO cells to AC50 for ProLink-tagged D2 receptor (unknown origin) expressed in CHO cells by beta-arrestin assay; format: cell-based; conditions: Homo sapiens
# [2] = test system: HEK293; experiment: Ratio of Ki for human D3 receptor expressed in HEK293 cell membrane to Ki for human D2L receptor expressed in HEK cell membrane; format: cell-based
# Summary of the method: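 Competition binding with [3H]methylspiperone on membranes from stable HEK cells. […] Incubation 90 min at room temperature in EBSS with sodium metabisulfite, nonspecific binding with 4 µM (+)-butaclamol, then GF/C filtration and scintillation counting. Ki from IC50 via Cheng–Prusoff.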
# [3] = test system: Mus musculus; experiment: Ratio of drug level in brain to plasma in C57BL/6 mouse at 30 mg/kg, ip administered as single dose
Structure (SMILES),Ratio [1],Ratio Ki [2],BPR [3]
CN1C(=O)c2ccccc2[S+]([O-])c2ccc(C(=O)NCCc3cccs3)cc21 (racemic),22.3,48.4,–
CN1C(=O)c2ccccc2[S@+]([O-])c2ccc(C(=O)NCCc3cccs3)cc21,17.8,41,0.181
